## Binding of CDR-mutated scFvs to a peptide of the spike HR2 region

Target peptide (SARS-CoV-2 spike, HR2 region): PDVDLGDISGINAS

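This is the validation round: designs drawn from the data on random variants, tested in the same kind of assay. Group labels follow the data file (En: ensemble of fine-tuned language models; HC: hill climbing; Gen: genetic algorithm; Gibbs: Gibbs sampling; a sequence that several methods proposed may carry one label only). The scFvs were displayed on barcoded MATa yeast, the peptide on MATalpha yeast. Mating (16 h, 30 °C) was followed by selection of diploids and sequencing of their barcodes. A regression on co-assayed BCL2-family reference pairs converts the normalised counts of each replicate to an apparent Kd. The assay was run in six technical replicates.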

The variants keep the light chain, the linker and the frameworks of Ab-14 (scFv order VH, the linker GGGGSGGGGSGGGGS, VL).
VH: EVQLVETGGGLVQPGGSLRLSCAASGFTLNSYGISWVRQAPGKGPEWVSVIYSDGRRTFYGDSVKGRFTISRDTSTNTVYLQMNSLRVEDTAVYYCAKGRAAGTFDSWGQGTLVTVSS
VL: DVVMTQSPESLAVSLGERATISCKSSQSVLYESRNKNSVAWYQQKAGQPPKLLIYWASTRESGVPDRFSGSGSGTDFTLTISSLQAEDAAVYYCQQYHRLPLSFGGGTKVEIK

Each variant is given by its three heavy chain CDRs, as the data file delimits them; those of the parent are GFTLNSYGIS, VIYSDGRRTFYGDSVK, GRAAGTFDS. Variants here have more than six changes. Affinities are written as log10 Kd with Kd in nM; a lower number is a better binder. Replicates are averaged; those with no signal do not enter the mean. A pair that was not seen in any replicate is written "nd"; this usually means weak binding, but a binder can also be missed. The authors averaged sequences with at least three values out of six and counted those with two or fewer as poor binders. Three control strains display no target. For all heavy chain designs, 1% of the pairings with them gave a signal, with a median of 2.08 and one signal in twenty below 0.84, so weak values seen in few replicates may be background. A sequence measured in both rounds can read differently, since the two assays cover different ranges.

The variant GFDLNEYGIS | VIYADGLRTFYTDSVK | GENAGTFDV [En_HC] showed -0.38 (6 of 6 replicates).
The variant GFDIEDYGIS | VIYADGMRSSYSNSFK | GLQSGNIMV [En_Gibbs] showed nd (0 of 6 replicates).
The variant GYDLVEYGIS | VIYADGIRTVVSDDVK | GNVAGTIFV [En_Gibbs] showed nd (0 of 6 replicates).
The variant GFNLDEYGIS | VIYADGRRTFYSDNVK | GEVAGTFDL [En_HC] showed -0.15 (6 of 6 replicates).
The variant GFNLSEYGIS | VIYADGMRSEYADNVK | GHKGNTFID [En_Gibbs] showed nd (0 of 6 replicates).
The variant GFDLDEYGIS | VIYADGKRTAYVDSVK | GENAGTFDV [En_Gen] showed -0.31 (6 of 6 replicates).
The variant GFDLNEQGIS | VIYADGTRTAYANTVK | GEVAGKFPD [En_Gibbs] showed nd (0 of 6 replicates).
The variant GFDLNEYGIS | VIYADGRRTFYADSVK | GEQAGTFDF [En_HC] showed -0.83 (6 of 6 replicates).
The variant GFDLDEYGIS | VIYADGMRTAYSDSVK | GQNAGTFDT [En_Gen] showed -0.65 (6 of 6 replicates).
The variant GFDLNEYGIS | VIYADGQRTFYADSVK | GEAAGTFDV [En_HC] showed -0.49 (6 of 6 replicates).
The variant GFDLDEYGIS | VIYADGRRTAYADSVK | GNVAGTFDL [En_Gen] showed -0.88 (6 of 6 replicates).
The variant GFDLNEYGIS | VIYADGRRTFYADSVK | GNNAGTILV [En_HC] showed nd (0 of 6 replicates).
The variant GFDLNEYGIS | VIYADGKRTAYADSVK | GNIAGTFDV [En_Gen] showed 0.41 (6 of 6 replicates).
The variant GFDLDEYGIS | VIYADGVRTAYSDSVK | GNQAGTFDV [En_Gen] showed 0.27 (5 of 6 replicates).
The variant GFDLGEYGIS | VIYADGRRFSYKDAVK | GVVEGMLDV [En_Gibbs] showed nd (0 of 6 replicates).
The variant GFDLNEYGIS | VIYADGVRTSYADSVK | GQNAGTFDI [En_Gen] showed -0.92 (6 of 6 replicates).
The variant GFDLNEYGIS | VIYADGLRTAYADDVK | GNNAGTFDV [En_Gen] showed -0.53 (6 of 6 replicates).
The variant GFDLNEYGIS | VIYADGKRKAYADSVK | GQNAGTFDV [En_Gen] showed -0.70 (6 of 6 replicates).
The variant GFDISEYGIS | VIYADGKKTQFKNTVK | GELGGTFNV [En_Gibbs] showed 1.68 (1 of 6 replicates).
The variant GFDLNEYGIS | VIYADGRRTAYSDNVK | GNVAGTFDV [En_Gen] showed -0.41 (6 of 6 replicates).
The variant GFDLDEYGIS | VIYADGRRTAYSDSVK | GNTAGTFDI [En_Gen] showed -0.13 (6 of 6 replicates).
The variant GFDLNEYGIS | VIYADGVRKAYSDSVK | GNNAGTFDV [En_Gen] showed -0.18 (6 of 6 replicates).
The variant GFDLNEYGIS | VIYADGQRTAYTDSVK | GNVAGTFDI [En_Gen] showed 0.62 (6 of 6 replicates).
The variant GFDLNEYGIS | VIYADGFRTAYADSVK | GENAGTFDV [En_Gen] showed -0.66 (6 of 6 replicates).
The variant GFDLNEYGIS | VIYADGRRTAYADSVK | GQVAGTFDF [En_HC] showed -0.31 (6 of 6 replicates).
The variant GFDLDEYGIS | VIYADGVRTAYTDSVK | GGNAGTFDV [En_HC] showed -0.33 (6 of 6 replicates).
The variant GFTLDEYGIS | VIYADGRRTFYADSVK | GEQAGTFDI [En_HC] showed -0.46 (6 of 6 replicates).
The variant GFDLNEYGIS | VIYADGRRTFYSDSVK | GTNAGTFDM [En_HC] showed 0.10 (6 of 6 replicates).
The variant GFDLDEQGIS | VIYADGQRKAYANQVK | GNQGNIART [En_Gibbs] showed -0.66 (6 of 6 replicates).
The variant GFNLNEYGIS | VIYADGMRTFYSDSVK | GEVAGTFDV [En_HC] showed -0.07 (6 of 6 replicates).
The variant GFDLNEYGIS | VIYADGMRTFYTDSVK | GQLAGTFDS [En_HC] showed -0.54 (6 of 6 replicates).
The variant GFDLEDYGIS | VIYADGRRTAYADSVK | GETAGTFDV [En_HC] showed 0.39 (6 of 6 replicates).
The variant GFDLNEYGIS | VIYADGMRTVYADSVK | GANAGTFDV [En_Gen] showed nd (0 of 6 replicates).
The variant GFDLNEYGIS | VIYADGKRTAYADSVK | GETAGTFDT [En_Gen] showed -0.67 (6 of 6 replicates).
The variant GFDLDEYGIS | VIYADGQRTAYADSVK | GSNAGTFDV [En_Gen] showed -0.08 (5 of 6 replicates).
The variant GFNLDEYGIS | VIYADGQRTFYADDVK | GNVAGTFDV [En_HC] showed -0.49 (6 of 6 replicates).
The variant GFDLEKYGIH | VIYADGIRASYSDSVK | GDLSGTLYV [En_Gibbs] showed -0.19 (6 of 6 replicates).
The variant GFDLNEYGIS | VIYADGMRTYYADSVK | GETAGTFDV [En_Gen] showed -0.06 (6 of 6 replicates).
The variant GFDLNEYGIS | VIYADGRRTFYSDSVK | GEIAGTFDQ [En_HC] showed -0.66 (6 of 6 replicates).
The variant GFDLEKYGIS | VIYADGIRKEYDQSVK | GQNAGAFTI [En_Gibbs] showed 2.67 (1 of 6 replicates).
The variant GFDLNEYGIS | VIYADGMRTAYADTVK | GEVAGTFDV [En_Gen] showed -0.72 (6 of 6 replicates).
The variant GFDLEKYGIH | VIYADGIRASYSDSVK | GDLSGTFYV [En_Gibbs] showed 1.75 (1 of 6 replicates).
The variant GFDLDEYGIS | VIYADGMRTAYSDSVK | GQVAGTFDL [En_Gen] showed -0.79 (6 of 6 replicates).
The variant GDSLNEYGIS | VIYADGFRAAYTDKVK | GVTGGNFSS [En_Gibbs] showed nd (0 of 6 replicates).
The variant GFDLDEYGIS | VIYADGKRTFYADSVK | GEVAGTFDL [En_Gen] showed -0.07 (4 of 6 replicates).
The variant GFDLNEYGIS | VIYADGRRTAYSDSVK | GNVGGSFDV [En_HC] showed -0.20 (6 of 6 replicates).
The variant GFKLQDYGIS | VIYADGVRYAFQNSVK | GQIAGTFNS [En_Gibbs] showed 2.87 (3 of 6 replicates).

5 of these entries, quoted again:

CDR-H1,CDR-H2,CDR-H3,group,"log10 Kd (nM), mean",detected
GFDLNEYGIS,VIYADGRRTAYSDSVK,GNVGGSFDV,En_HC,-0.20,6 of 6
GFDLNEYGIS,VIYADGRRTAYADSVK,GQVAGTFDF,En_HC,-0.31,6 of 6
GFDLDEYGIS,VIYADGRRTAYADSVK,GNVAGTFDL,En_Gen,-0.88,6 of 6
GFDLNEYGIS,VIYADGKRTAYADSVK,GETAGTFDT,En_Gen,-0.67,6 of 6
GFDLNEYGIS,VIYADGKRTAYADSVK,GNIAGTFDV,En_Gen,0.41,6 of 6

The measurements come from Li et al. 2023 (doi:10.1038/s41467-023-39022-2) through the FLAb antibody collection.